# Patent US10363215B2, “Porous microparticles with high loading efficiencies” (THE TEXAS A & M UNIVERSITY SYSTEM, priority 2013, dated 2019)
# Assay: Loading (encapsulation) efficiency of BMP-2 in porous microspheres, protein assay after crushing and incubating in water
# Format: physicochemical
# Conditions: EGDMA/PGPR/DMPA porous microspheres about 800 micrometer in diameter, average pore size 14 micrometers; compared to theoretical maximum
# Method: While a biologic substance (recombinant human bone morphogenetic protein-2 (BMP-2), 5000 ng) in water (1.5 mL) was the aqueous phase. The two phases were mixed as described herein to form a first emulsion and then provided drop wise to a second component, thereby fabricating porous microspheres. In one example, these porous microspheres were formed to be about 800 micrometer in diameter. Loading efficiency of the BMP-2 was determined by crushing the microspheres and then incubating in 3 mL deionized water while agitating, for about 15 hours in small containers (e.g., 15 mL tubes). After agitation, the crushed particles were collected at a high speed in the incubating containers, the incubating liquid was removed and saved, and the particles were introduced to additional water as before. Protein concentrations in the collected liquids, when combined, was measured using a seven point calibration curve, and the amount encapsulated was compared to a theoretical maximum based on HIPE (or MIPE) concentration. […] The protein encapsulation had little effect on particle size and microarchitecture. […] Without being bound by theory, the increased encapsulation efficiency may be associated both with the physical entrapment of the molecules and possible adsorption onto the microsphere pore walls. […]
substance,measurement,value
BMP-2: recombinant human bone morphogenetic protein-2 encapsulated in EGDMA/PGPR porous microspheres,encapsulation efficiency,73%±3%
